From PMC5059758, “Structural characterization of antibiotic self-immunity tRNA synthetase in plant tumour biocontrol agent” (Nature Communications, 2016)

Test system: LeuRSAt Triad (P45T/N105A/M633Q)
Assay: Aminoacylation assay, LeuRSAt Triad mutant
Type: biochemical, A. tumefaciens
Settings: kinetic inhibition experiments

**Q.** `CC(C)[C@@H](O)[C@H](O)C(=O)NP(=O)(O)OC[C@@H]1C[C@H](O)[C@H](n2cnc3c(N)ncnc32)O1` [TM84] was tested. Which “TM84 concentrations to which the enzyme was resistant” value did it give?
**A.** up to 500 nM
